In PubChem BioAssay AID1423 (NMMLSC, 2008):
Where “and” joins values, the source holds several entries; their conditions need not be identical. Identical values can stand only once. The entries are a selection whose mix differs from that of the whole data set. Calls of active or inactive are those of the source. Rule as the data show it: active = response below about 60% or above about 140%; inactive = in between.

Amino acid sequences for entries named in this document (tags omitted).
UniProt P09471, whole entry, looked up: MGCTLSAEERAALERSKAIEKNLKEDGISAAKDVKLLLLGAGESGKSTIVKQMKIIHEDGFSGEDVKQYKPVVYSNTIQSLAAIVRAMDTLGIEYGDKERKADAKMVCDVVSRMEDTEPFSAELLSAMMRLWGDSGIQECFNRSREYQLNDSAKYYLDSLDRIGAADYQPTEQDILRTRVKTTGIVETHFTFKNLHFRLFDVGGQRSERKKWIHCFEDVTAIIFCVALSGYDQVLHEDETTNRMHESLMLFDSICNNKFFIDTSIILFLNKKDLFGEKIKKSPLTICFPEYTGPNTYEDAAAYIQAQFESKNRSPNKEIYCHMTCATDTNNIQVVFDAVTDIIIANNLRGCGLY

Each compound was assayed against Guanine nucleotide-binding protein G(o) subunit alpha (Homo sapiens) (UniProt P09471) (assay: compounds changing RGS8 association with Galphao – biochemical, multiplexed bead flow cytometry, primary screen (AID 1423;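 also: Galphao activated as the GDP aluminium fluoride complex binding bead-coupled RGS8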)). Details: at 10 µM, actives lie on both sides.

SMILES	response (percent of control binding)
O=[As](O)(c1cccs1)c1cccs1	inactive: 101%
Cc1ccc(OCC(=O)OC2CN3CCC2CC3)cc1 (centres undefined)	inactive: 95.6%
Cc1nn(-c2ccccc2)c2c1P(=O)(N1CCOCC1)N(C)C(c1ccccc1)=N2 (centres undefined)	inactive: 104%
CC1CCC(C(C)C)C(OP(=O)(Nc2ccccn2)c2ccccc2)C1 (centres undefined)	inactive: 94.9%
CN(C)C1(CNC(=O)c2ccc(S(C)(=O)=O)cc2)CCCCC1	inactive: 104%
O=C(/C=C/c1ccccc1)OC1CN2CCC1CC2 (centres undefined)	inactive: 100%
CCOC(=O)Nc1cccc([As](=O)(O)O)c1	inactive: 103%
O=P(Nc1ccccn1)(c1cccc2ccccc12)c1cccc2ccccc12	inactive: 100%
Cc1cc(SC(NC=O)C(Cl)(Cl)Cl)ncn1 (centres undefined)	inactive: 100%
O=[N+]([O-])c1ccc(Nc2ccc(Oc3ccc([N+](=O)[O-])cc3[N+](=O)[O-])cc2)c([N+](=O)[O-])c1	inactive: 97.2%
CCOC(=O)Nc1ccc([As](=O)(O)O)c(O)c1	inactive: 98.8%
Cc1cc(SC(NC(=O)c2ccccc2)C(Cl)(Cl)Cl)nc(C(C)C)n1 (centres undefined)	inactive: 97.9%
CCOC(=O)c1ccc(NC(=O)C(C)(CCl)SC)cc1 (centres undefined)	inactive: 101%
CCC(C)N(CC(C)C)C(=S)SC(NC(C)=O)C(Cl)(Cl)Cl (centres undefined)	inactive: 103%
COP1(=S)c2c(C)nn(CCC#N)c2N=C(c2ccc(F)cc2)N1C (centres undefined)	inactive: 100%
O=C(COc1ccccc1)OC1CN2CCC1CC2 (centres undefined)	inactive: 97.5%
COc1ccc(N/C(=N/P(=O)(N2CCOCC2)N2CCOCC2)N2CCOCC2)cc1	inactive: 103%
Cc1c2c(nc3ccccc13)SC(C(Cl)Cl)C2 (centres undefined)	inactive: 92.6%
O=C(OC1CN2CCC1CC2)C12CC3CC(CC(C3)C1)C2 (centres undefined)	inactive: 103%
Cc1cc(=O)[nH]c(N[N+](=O)[O-])n1	inactive: 107%
COc1ccc2nc(NP(=O)(c3ccccc3)c3ccccc3)sc2c1	inactive: 104%
COc1cc(I)ccc1[As](=O)(O)O	inactive: 103%
ClCCSc1nnc(-c2cccnc2)o1	inactive: 103%
CC(C)c1ccc(OP(=O)(Nc2ccccn2)Oc2ccccc2F)cc1 (centres undefined)	inactive: 83.5%
CCN(CC)C(=S)SC(NC=O)C(Cl)(Cl)Cl (centres undefined)	inactive: 102%

SMILES	response (percent of control binding)
CC(C)NC(=O)NP(=O)(Oc1ccccc1)Oc1ccccc1	inactive: 96.2%
O=[N+]([O-])c1cc([N+](=O)[O-])c(-c2ccn[nH]2)s1	inactive: 99.2%
O=[As](O)(c1ccc(O)cc1)c1ccccc1O	inactive: 99.8%
C[As](=O)(O)c1cccc(C(=O)O)c1	inactive: 91%
Cc1ccc(OP(=O)(Nc2ccc([N+](=O)[O-])cn2)Oc2ccc(C)cc2)cc1	inactive: 104%
Cc1ccc2nc3c(c(C)c2c1)CC(C(Cl)Cl)S3 (centres undefined)	inactive: 106%
Nc1cccc2ccc([As](=O)(O)O)cc12	inactive: 97.2%
CCN(N=Nc1nonc1N)c1nonc1N	inactive: 99%
O=P(Nc1nc2ccc(Cl)cc2s1)(c1ccccc1)c1ccccc1	inactive: 97.6%
O=C(O)c1ccccc1[As](=O)(O)O	inactive: 100%
CC(=O)Nc1ccc([As](=O)(O)O)cc1	inactive: 97.3%
CCOP(=O)(Nc1ccccc1)OCC	inactive: 104% and inactive: 103%
Cc1cc(SC(NC(=O)c2ccc(F)cc2)C(Cl)(Cl)Cl)ncn1 (centres undefined)	inactive: 99.3%
Cc1ccc(NP(=O)(Oc2ccccc2F)Oc2ccccc2F)nc1	inactive: 102%
Oc1ccccc1CNc1ccccn1	inactive: 103%
Cc1c2non([O-])c-2c(C)[n+](=O)[n+]1[O-]	inactive: 87.6%
O=C(NC(Sc1ccncn1)C(Cl)(Cl)Cl)c1ccccc1 (centres undefined)	inactive: 93.4%
CC(C)CC(=O)NC(Sc1ccc(Cl)cc1)C(Cl)(Cl)Cl (centres undefined)	inactive: 97.5%
Nc1cc(N)c2nonc2c1[N+](=O)[O-]	inactive: 102%
Cc1ccc(N/C(=N/P(=O)(N2CCOCC2)N2CCOCC2)N2CCOCC2)cc1	inactive: 105%
NC(=O)c1cc([N+](=O)[O-])cc([N+](=O)[O-])c1N	inactive: 101%
Clc1ccc(Cl)c(NC2=NCC(CBr)S2)c1 (centres undefined)	inactive: 104%
CN1CCCC(OC(=O)C(c2ccccc2)c2ccccc2)C1 (centres undefined)	inactive: 102%
COc1ccccc1OP(=O)(Nc1ccc(C)cn1)Oc1ccccc1OC	inactive: 103%
